Test results taken from US6534629B1, “Nematode-extracted serine protease inhibitors and anticoagulant proteins” (priority 1994, dated 2003).
Where two headings read alike, the source gives them in different places.

Amino acid sequences for entries named in this document (tags omitted). Residues count along the entry.
UniProt P08709, 61-212: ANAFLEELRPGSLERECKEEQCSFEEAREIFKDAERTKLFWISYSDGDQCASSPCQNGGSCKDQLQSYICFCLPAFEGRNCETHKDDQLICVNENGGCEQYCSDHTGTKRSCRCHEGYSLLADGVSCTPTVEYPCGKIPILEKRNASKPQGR
UniProt P08709, 213-466: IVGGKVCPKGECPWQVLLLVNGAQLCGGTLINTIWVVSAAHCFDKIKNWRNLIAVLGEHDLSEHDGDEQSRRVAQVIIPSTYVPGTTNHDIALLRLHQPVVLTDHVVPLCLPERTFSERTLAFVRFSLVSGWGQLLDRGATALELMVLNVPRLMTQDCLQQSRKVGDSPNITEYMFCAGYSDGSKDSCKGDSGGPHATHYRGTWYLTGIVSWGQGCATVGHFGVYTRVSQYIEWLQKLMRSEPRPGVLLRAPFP
UniProt P00742, 41-179 partner: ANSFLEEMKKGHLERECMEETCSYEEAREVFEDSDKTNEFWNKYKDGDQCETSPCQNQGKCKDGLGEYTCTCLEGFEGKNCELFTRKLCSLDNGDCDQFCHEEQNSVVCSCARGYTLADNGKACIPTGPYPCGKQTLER
UniProt P00742, 235-488 partner: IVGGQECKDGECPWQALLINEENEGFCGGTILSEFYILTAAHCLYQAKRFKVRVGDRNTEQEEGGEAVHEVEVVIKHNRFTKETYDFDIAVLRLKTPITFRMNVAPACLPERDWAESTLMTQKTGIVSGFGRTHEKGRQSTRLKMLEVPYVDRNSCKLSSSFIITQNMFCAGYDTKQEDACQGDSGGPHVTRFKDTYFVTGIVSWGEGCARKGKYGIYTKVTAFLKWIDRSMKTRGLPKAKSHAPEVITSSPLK

Tests used:
Assay type in all cases: biochemical
[1] = target: T1, human rFVIIa/rTF/PLV complex (Homo sapiens, UniProt P08709); assay: fVIIa/TF fIX activation assay (3H-FIX)
T1 construct: Lyophilized, purified, recombinant human factor VIIa was obtained from BiosPacific, Inc; purchased rFVIIa: BiosPacific, Inc. (Emeryville, Calif.); rTF: made in house (Corvas International, Inc.) in a baculovirus expression system; host or cells: rTF: baculovirus-expression system
Protocol: This Example measures the ability of NAPs of the present invention to act as an inhibitor of the catalytic complex of fVIIa/TF, which has a primary role in initiation of the coagulation response in the ex vivo prothrombin time assay (Example B). Activation of tritiated Factor IX by the rFVIIa/rTF/PLV complex was assessed by determining the respective intrinsic inhibition constant, Ki*.
Lyophilized, purified, recombinant human factor VIIa was obtained from BiosPacific, Inc. (Emeryville, Calif.), and reconstituted in HBS (10 mM HEPES, pH 7.5, 150 mM sodium chloride) prior to use. Purified human Factor X was obtained from Enzyme Research Laboratories, Inc. (South Bend, Ind.) and Factor Xa (free FXa) was activated and prepared from Factor X as described (Bock, P. E., Craig, P. A., Olson, S. T., and Singh, P. Arch. Biochem. Biophys. 273: 375-388 (1989)). Active site-blocked human Factor Xa (EGR-FXa), which had been irreversibly inactivated with L-Glutamyl-L-glycyl-L-arginyl chloromethylketone, was obtained from Haematologic Technologies, Inc. (Essex Junction, Vt.). Recombinant human tissue factor (rTF) was produced by a baculovirus-expression system, and purified to homogeneity by monoclonal antibody affinity chromatography (Corvas International, Inc., San Diego, Calif.).
The purified rTF apoprotein was incorporated into phospholipid vesicles (rTF/PLV), consisting of phosphotidyl choline (75%, w/v) and phosphotidyl serine (25%, w/v) in the presence of detergent, as described by Ruf et al. (Ruf, W., Miles, D. J., Rehemtulla, A., and Edgington, T. S. Methods in Enzymology 222: 209-224 (1993)). The phospholipids were purchased from Avanti Polar Lipids, (Alabaster, Ala.). The buffer used for all assays was HBSA, HBS containing 0.1% (w/v) bovine serum albumin. All reagents were obtained from Sigma Chemical Cb. (St. Louis, Mo.), unless otherwise indicated.
The activation of human ^3H-Factor IX (FIX) by the rFVIIa/rTF complex was monitored by measuring the release of the radiolabelled activation peptide. Purified human fIX was obtained from Haematologic Technologies, Inc. (Essex Junction, Vt.), and radioactively labelled by reductive tritiation as described (Van Lenten & Ashwell, 1971, JBC 246, 1889-1894). […] The radiospecific activity was 2.7×10^8 dpm/mg. […]
At specific time points (8, 16, 24, 32, and 40 min), 80 μl of the reaction mixture was added to an eppendorf tube that contained an equal volume of 50 mM EDTA in HBS with 0.5% BSA to stop the reaction; this was followed by the addition of 160 μL of 6% (w/v) trichloroacetic acid. […] The radioactivity contained in the resulting supernatant was measured by removing triplicate aliquots that were added to Scintiverse BD (Fisher Scientific, Fairlawn, N.J.), and quantitated by liquid scintillation counting. […]

human factor Xa = target: T2, human factor Xa (Homo sapiens, UniProt P00742); assay: Factor Xa amidolytic assay; conditions: free human FXa 0.5 nM, substrate S2765 250 micromolar, 30 minute incubation
T2 construct: Factor Xa enzyme diluted in HBSA (prepared from purified human factor X obtained from Enzyme Research Laboratories)
Protocol: The ability of NAPs of the present invention to act as inhibitors of factor Xa catalytic activity was assessed by determining the NAP-induced inhibition of amidolytic activity catalyzed by the human enzyme, as represented by Ki* values.
The buffer used for all assays was HBSA (10 mM HEPES, pH 7.5, 150 mM sodium chloride, 0.1% bovine serum albumin). All reagents were from Sigma Chemical Co. (St. Louis, Mo.), unless otherwise indicated.
The assay was conducted by combining in appropriate wells of a Corning microtiter plate, 50 microliters of HBSA, 50 microliters of the test NAP compound diluted (0.025-25 nM) in HBSA (or HBSA alone for uninhibited velocity measurement), and 50 microliters of the Factor Xa enzyme diluted in HBSA (prepared from purified human factor X obtained from Enzyme Research Laboratories (South Bend, Ind.) according to the method described by Bock, P. E. et al., Archives of Biochem. Biophys. 273: 375 (1989). The enzyme was diluted into HBSA prior to the assay in which the final concentration was 0.5 nM). […] The initial velocity of chromogenic substrate hydrolysis was measured by the change in absorbance at 405 nm using a Thermo Max® Kinetic Microplate Reader (Molecular Devices, Palo alto, Calif.) over a 5 minute period in which less than 5% of the added substrate was utilized. […]

[2] = target: T3, human fXa incorporated into a prothrombinase complex (Homo sapiens, UniProt P00742); assay: Prothrombinase inhibition assay; conditions: activation of prothrombin by prothrombinase complex; FXa 250 fM, prothrombin 250 nM
T3 construct: a preformed complex of human FXa, human Factor Va (FVa), and phospholipid vesicles; FVa: Haematologic Technologies, Inc. (Essex Junction, Vt.)
Protocol: The ability of NAP of the present invention to act as an inhibitor of the activation of prothrombin by Factor Xa that has been assembled into a physiologic prothrombinase complex was assessed by determining the respective inhibition constant, Ki*.
Prothrombinase activity was measured using a coupled amidolytic assay, where a preformed complex of human FXa, human Factor Va (FVa), and phospholipid vesicles first activates human prothrombin to thrombin. The amidolytic activity of the generated thrombin is measured simultaneously using a chromogenic substrate. Purified human FVa was obtained from Haematologic Technologies, Inc. (Essex Junction, Vt.). Purified human prothrombin was purchased from Celsus Laboratories, Inc. (Cincinnati, Ohio). […]
The prothrombinase activity of fXa was measured as an increase in the absorbance at 405 nm over 10 min (velocity); exactly as described in Example A, under steady-state conditions. The absorbance increase was sigmoidal over time, reflecting the coupled reactions of the activation of prothrombin by the FXa-containing prothrombinase complex, and the subsequent hydrolysis of Pefachrome tPA by the generated thrombin. The data from each well of a triplicate were combined and fit by reiterative, linear least squares regression analysis, as a function of absorbance versus time^2, as described [Carson, S. D. Comput. […]

[3] = No FXa Addition, read-out: Ki* (pM) 3H-FIX Activation, No FXa Addition

AcaNAP6: NAP of Ancylostoma caninum, SEQ. ID. NO. 6; recombinant, made in Pichia pastoris
Ki ([1]; +EGR-FXa (300 pM), read-out: Ki* (pM) 3H-FIX Activation, +EGR-FXa): > 1500 pM | Ki ([1]; +free FXa (300 pM), read-out: Ki* (pM) 3H-FIX Activation, +free FXa): > 1500 pM | Ki [1, 3]: > 1500 pM

AcaNAPc2: NAP of Ancylostoma caninum isolated by phage display, SEQ. ID. NO. 59; fVIIa/TF inhibitor
Ki [1, 3]: > 1500 pM | Ki (human factor Xa): > 1000 nM | Ki [2]: 2.39 ± 0.283 nM
